From patent publication US20030157670A1 (priority 2002, published 2003)

Test system: capsaicin decomposing/synthesizing enzyme (purified enzyme from Streptomyces mobaraensis IFO13819)
Assay: Synthesis of capsaicin analogs from vanillylamine and fatty acids with the enzyme of the invention
Assay type: biochemical
Conditions: vanillylamine and various saturated fatty acids; in words

## CCCCCCCCCCCC(=O)O [Lauric acid]
  synthesis reactivity among saturated fatty acids as substrates: highest
